Measured values published in patent publication US9434727B2, “Substituted 4-phenylpiperidines, their preparation and use” (THE TRUSTEES OF COLUMBIA UNIVERSITY IN THE CITY OF NEW YORK, priority 2014, dated 2016).

How the values were obtained:
[1] = biological target: RBP4 (Homo sapiens (Human), UniProt P02753); assay: Scintillation proximity (SPA) RBP4 binding assay; conditions: 10 nM 3H-Retinol, 50 nM biotinylated RBP4
Experimental: Scintillation Proximity RBP4 Binding Assay
Untagged human RBP4 purified from urine of tubular proteinuria patients was purchased from Fitzgerald Industries International. It was biotinylated using the EZ-Link Sulfo-NHS-LC-Biotinylation kit from Pierce following the manufacturer's recommendations. Binding experiments were performed in 96-well plates (OptiPlate, PerkinElmer) in a final assay volume of 100 μl per well in SPA buffer (IX PBS, pH 7.4, 1 mM EDTA, 0.1% BSA, 0.5% CHAPS). The reaction mix contained 10 nM ^3H-Retinol (48.7 Ci/mmol; PerkinElmer), 0.3 mg/well Streptavidin-PVT beads, 50 nM biotinylated RBP4 and a test compound. Nonspecific binding was determined in the presence of 20 μM of unlabeled retinol. The reaction mix was assembled in the dark under dim red light. The plates were sealed with clear tape (TopSeal-A: 96-well microplate, PerkinElmer), wrapped in the aluminum foil, and allowed to equilibrate 6 hours at room temperature followed by overnight incubation at +4° C. Radiocounts were measured using a TopCount NXT counter (Packard Instrument Company).

[2] = biological target: RBP4-TTR interaction (Homo sapiens (Human), UniProt P02753); assay: TR-FRET (HTRF) assay for retinol-induced RBP4-TTR interaction; format: biochemical; conditions: in the presence of 1 μM retinol; read-out: HTRF assay for antagonists of RBP4-TTR interaction: IC50
Experimental: Bacterially expressed MBP-RBP4 and untagged TTR were used in this assay. […] Human untagged TTR was purchased from Calbiochem. […] HTRF assay was performed in white low volume 384 well plates (Greiner-Bio) in a final assay volume of 16 μl per well. […] All reactions were assembled in the dark under dim red light and incubated overnight at +4° C. wrapped in aluminum foil. […] The TR-FRET signal was expressed as the ratio of fluorescence intensity: Flu665/Flu620×10,000.

Row | Structure (SMILES) | IC50 [1] | IC50 [2]
1 | CC(=O)N1Cc2[nH]nc(C(=O)N3CCC(c4ccc(F)c(F)c4C(F)(F)F)CC3)c2C1 [Compound 83, 1-(3-(4-(3,4-Difluoro-2-(trifluoromethyl)phenyl)piperidine-1-carbonyl)pyrrolo[3,4-c]pyrazol-5(1H,4H,6H)-yl)ethanone] | 11.6 nM and < 1.37 nM | 30.8 nM and 4.85 nM
2 | CC(=O)N1CCc2[nH]nc(C(=O)N3CCC(c4ccc(F)c(F)c4C(F)(F)F)CC3)c2C1 [Compound 82, 1-(3-(4-(3,4-Difluoro-2-(trifluoromethyl)phenyl)piperidine-1-carbonyl)-6,7-dihydro-1H-pyrazolo[4,3-c]pyridin-5(4H)-yl)ethanone] | 11.6 nM | 30.8 nM
3 | COCCN1CCc2c(C(=O)N3CCC(c4ccc(F)c(F)c4C(F)(F)F)CC3)n[nH]c2C1 [Compound 124, (4-(3,4-Difluoro-2-(trifluoromethyl)phenyl)piperidin-1-yl)(6-(2-methoxyethyl)-4,5,6,7-tetrahydro-1H-pyrazolo[3,4-c]pyridin-3-yl)methanone] | 14.6 nM | 24.9 nM
4 | CC(C)(C)CN1Cc2[nH]nc(C(=O)N3CCC(c4ccc(F)c(F)c4C(F)(F)F)CC3)c2C1 [Compound 99, (4-(3,4-difluoro-2-(trifluoromethyl)phenyl)piperidin-1-yl)(5-neopentyl-1,4,5,6-tetrahydropyrrolo[3,4-c]pyrazol-3-yl)methanone] | 22.5 nM | 147 nM
5 | O=C(c1n[nH]c2c1CNCC2)N1CCC(c2cccc(F)c2C(F)(F)F)CC1 [Compound 32, ((4-(3-Fluoro-2-(trifluoromethyl)phenyl)piperidin-1-yl)(4,5,6,7-tetrahydro-1H-pyrazolo[4,3-c]pyridin-3-yl)methanone Hydrochloride] | 62.5 nM | 244 nM
6 | O=C(c1n[nH]c2c1CN(CCC(F)(F)F)CC2)N1CCC(c2cccc(F)c2C(F)(F)F)CC1 [Compound 72, (4-(3-Fluoro-2-(trifluoromethyl)phenyl)piperidin-1-yl)(5-(3,3,3-trifluoropropyl)-4,5,6,7-tetrahydro-1H-pyrazolo[4,3-c]pyridin-3-yl)methanone] | 10.8 nM | 52.8 nM
7 | CS(=O)(=O)N1CCc2[nH]nc(C(=O)N3CCC(c4cc(F)ccc4C(F)(F)F)CC3)c2C1 [Compound 141, (4-(5-fluoro-2-(trifluoromethyl)phenyl)piperidin-1-yl)(5-(methylsulfonyl)-4,5,6,7-tetrahydro-1H-pyrazolo[4,3-c]pyridin-3-yl)methanone] | 5.24 nM | 20.8 nM
8 | CC(C)C(=O)N1CCc2c(C(=O)N3CCC(c4ccc(F)c(F)c4C(F)(F)F)CC3)n[nH]c2C1 [Compound 121, 1-(3-(4-(3,4-Difluoro-2-(trifluoromethyl)phenyl)piperidine-1-carbonyl)-1,4,5,7-tetrahydro-6H-pyrazolo[3,4-c]pyridin-6-yl)-2-methylpropan-1-one] | 8.84 nM | 31.8 nM
9 | N#CN1CCc2c(C(=O)N3CCC(c4cccc(F)c4Cl)CC3)n[nH]c2C1 [Compound 148, 3-(4-(2-chloro-3-fluorophenyl)piperidine-1-carbonyl)-4,5-dihydro-1H-pyrazolo[3,4-c]pyridine-6 (7H)-carbonitrile] | 5.12 nM and < 1.37 nM | –
10 | CNC(=O)N1CCc2c(C(=O)N3CCC(c4ccc(F)c(F)c4C(F)(F)F)CC3)n[nH]c2C1 [Compound 112, 3-(4-(3,4-Difluoro-2-(trifluoromethyl)phenyl)piperidine-1-carbonyl)-N-methyl-1,4,5,7-tetrahydro-6Hpyrazolo[3,4-c]pyridine-6-carboxamide] | 11.5 nM | 27.5 nM
11 | COc1ccc2nnc(C(=O)N3CCC(c4cc(C(F)(F)F)cc(C(F)(F)F)c4)CC3)n2c1 [Compound 155, (4-(3,5-bis(trifluoromethyl)phenyl)piperidin-1-yl)(6-methoxy-[1,2,4]triazolo[4,3-a]pyridin-3-yl) methanone] | 21.6 nM | 186 nM
12 | CCN1CCc2[nH]nc(C(=O)N3CCC(c4cccc(F)c4C(F)(F)F)CC3)c2C1 [Compound 67, (5-ethyl-4,5,6,7-tetrahydro-1H-pyrazolo[4,3-c]pyridin-3-yl)(4-(3-fluoro-2-(trifluoromethyl)phenyl)piperidin-1-yl)methanone] | 8.31 nM | 40.8 nM
13 | O=C(c1n[nH]c2c1CN(CC1CC1)CC2)N1CCC(c2ccc(F)c(F)c2C(F)(F)F)CC1 [Compound 88, (5-(cyclopropylmethyl)-4,5,6,7-tetrahydro-1Hpyrazolo[4,3-c]pyridin-3-yl)(4-(3,4-difluoro-2-(trifluoromethyl)phenyl)piperidin-1-yl)methanone] | 14.7 nM and 13.4 nM | –
14 | N#Cc1ccc2nnc(C(=O)N3CCC(c4ccc(F)cc4C(F)(F)F)CC3)n2c1 [Compound 160, 3-(4-(4-fluoro-2-(trifluoromethyl)phenyl)piperidine-1-carbonyl)-[1,2,4]triazolo[4,3-a]pyridine-6-carbonitrile] | 9.06 nM | 19.8 nM
15 | CCN1CCc2[nH]nc(C(=O)N3CCC(c4ccc(F)c(F)c4C(F)(F)F)CC3)c2C1 [Compound 87, (4-(3,4-difluoro-2-(trifluoromethyl)phenyl)piperidin-1-yl)(5-ethyl-4,5,6,7-tetrahydro-1H-pyrazolo[4,3-c]pyridin-3-yl)methanone] | – | 22.2 nM and 16.4 nM
16 | N#Cc1ccc2nnc(C(=O)N3CCC(c4cc(Cl)ccc4C(F)(F)F)CC3)n2c1 [Compound 161] | 5.74 nM | 25.8 nM
17 | COCCN1CCc2[nH]nc(C(=O)N3CCC(c4cccc(F)c4Cl)CC3)c2C1 [Compound 168, (4-(2-Chloro-3-fluorophenyl)piperidin-1-yl)(5-(2-methoxyethyl)-4,5,6,7-tetrahydro-1H-pyrazolo[4,3-c]pyridin-3-yl)methanone] | 15.5 nM | 81.3 nM
18 | O=C(c1ccncc1)N1Cc2[nH]nc(C(=O)N3CCC(c4ccc(F)c(F)c4C(F)(F)F)CC3)c2C1 [Compound 105, (4-(3,4-difluoro-2(trifluoromethyl)phenyl)piperidin-1-yl)(5-isonicotinoyl-1,4,5,6-tetrahydropyrrolo[3,4-c]pyrazol-3-yl)methanone] | 11.2 nM | 36.4 nM
19 | O=C(c1n[nH]c2c1CN(CC(F)(F)F)CC2)N1CCC(c2cccc(F)c2Cl)CC1 [Compound 166, (4-(2-Chloro-3-fluorophenyl)piperidin-1-yl)(5-(2,2,2-trifluoroethyl)-4,5,6,7-tetrahydro-1H-pyrazolo[4,3-c]pyridin-3-yl)methanone] | 12.2 nM | 37.9 nM
20 | O=C(c1n[nH]c2c1CN(CC1CC1)CC2)N1CCC(c2cccc(F)c2C(F)(F)F)CC1 [Compound 69, (5-(Cyclopropylmethyl)-4,5,6,7-tetrahydro-1Hpyrazolo[4,3-c]pyridin-3-yl)(4-(3-fluoro-2-(trifluoromethyl)phenyl)piperidin-1-yl)methanone] | 10 nM | 26.7 nM
21 | O=C(c1n[nH]c2c1CN(C(=O)N1CCCCC1)C2)N1CCC(c2ccc(F)c(F)c2C(F)(F)F)CC1 [Compound 128, (4-(3,4-Difluoro-2-(trifluoromethyl)phenyl)piperidin-1-yl)(5-(piperidine-1-carbonyl)-1,4,5,6 tetrahydropyrrolo[3,4-c]pyrazol-3-yl)methanone] | 18.4 nM | –
22 | N#CN1CCc2[nH]nc(C(=O)N3CCC(c4cccc(F)c4C(F)(F)F)CC3)c2C1 [Compound 70, 3-(4-(3-Fluoro-2-(trifluoromethyl)phenyl)piperidine-1-carbonyl)-6,7-dihydro-1H-pyrazolo[4,3-c]pyridine-5(4H)-carbonitrile] | 16.4 nM | –
23 | O=C(c1n[nH]c2c1CN(CC1CC1)C2)N1CCC(c2ccc(F)c(F)c2C(F)(F)F)CC1 [Compound 97, (5-(cyclopropylmethyl)-1,4,5,6-tetrahydropyrrolo[3,4-c]pyrazol-3-yl)(4-(3,4-difluoro-2-(trifluoromethyl)phenyl)piperidin-1-yl)methanone] | 14.3 nM | 24 nM
24 | CN1CCc2c(C(=O)N3CCC(c4ccc(F)c(F)c4C(F)(F)F)CC3)n[nH]c2C1 [Compound 113, (4-(3,4-Difluoro-2-(trifluoromethyl)phenyl)piperidin-1-yl)(6-methyl-4,5,6,7-tetrahydro-1H-pyrazolo[3,4-c]pyridin-3-yl)methanone] | 8.57 nM | 29.7 nM
25 | CS(=O)(=O)N1CCc2[nH]nc(C(=O)N3CCC(c4ccc(F)cc4C(F)(F)F)CC3)c2C1 [Compound 159, (4-(4-fluoro-2-(trifluoromethyl)phenyl)piperidin-1-yl)(5-(methylsulfonyl)-4,5,6,7-tetrahydro-1H-pyrazolo[4,3-c]pyridine-3-yl)methanone] | 8.06 nM | 52.3 nM
26 | N#CN1CCc2c(C(=O)N3CCC(c4ccc(F)c(F)c4C(F)(F)F)CC3)n[nH]c2C1 [Compound 120, 3-(4-(3,4-Difluoro-2-(trifluoromethyl)phenyl)piperidine-1-carbonyl)-1,4,5,7-tetrahydro-6H-pyrazolo[3,4-c]pyridine-6-carbonitrile] | – | 21 nM

“And” between values parts separate entries of the source, which are not always exact repeats. Identical values can stand only once. Counter-ions that a name gives are not always drawn.
